Values quoted from earlier work in patent US20210198628A1, “BASAL MEDIA FOR GROWING NK-92 CELLS” (NantKwest, Inc., priority 2018, published 2021).

Tested on: NK-92® cells
Conditions: NK-92 cells in culture

Which “dose sufficient to maintain proliferation” value does the source give for rIL-2: recombinant interleukin 2 here?
Its value is 1 IU/mL.
